Data: US20120046222A1

These substances were tested against GLP-1 receptor (UniProt P32301) (assay: cell-based or functional assay).
For “Ala^2,Pro^3,Ala^4-exendin-4 (from UniProt P26349) (peptide)”, the Cyclase GLP-1 Receptor EC50 was 1.03 nM.
Work on “Ala^2,Pro^3-exendin-4 (from UniProt P26349) (peptide)” yielded a Cyclase GLP-1 Receptor EC50 of 0.007 nM.
Work on “NMeAla^2,Pro^3-exendin-4 (from UniProt P26349) (peptide)” yielded a Cyclase GLP-1 Receptor EC50 of 0.065 nM.
Work on “Pro^3,Ala^4-exendin-4 (from UniProt P26349) (peptide)” yielded a Cyclase GLP-1 Receptor EC50 of 0.022 nM.
With “Pro^3,dAla^4-exendin-4 (from UniProt P26349) (peptide)” the Cyclase GLP-1 Receptor EC50 was 0.06 nM.
“Val^2,Pro^3-exendin-4 (from UniProt P26349) (peptide)” showed a Cyclase GLP-1 Receptor EC50 of 1.09 nM.
Substance “exendin-4 amide (from UniProt P26349) (peptide)” has a Cyclase GLP-1 Receptor EC50 of 0.01 nM.
